The numbers were not newly measured in patent US10953107B2, “Polypeptide compositions and methods for site-specific targeting of therapeutic agents” (Trustees of Boston University, priority 2018, dated 2021), which cites them from elsewhere.

For the series the following is noted: first value of 'x vs. y', second value is an unnamed comparator arm, cited from earlier work.

For the substance Cetuximab, the OS (overall survival) is listed as 6.3 vs. 5.9 mo. Under “progression-free survival”, the PFS is given as 3.4 vs 3.0 mo.
